The data set is described as follows: High-throughput (direct-to-biology) human liver microsomal stability assay. Particulars: human liver microsomes.

Consider Boc-Maprotiline, for which the “%Change After 60 min” value (%remaining after LSS minus before LSS at 60 min) was -7.24%. For the same substance, the “%Remaining Before LSS 0 min” value (pure unsaturated drug, 0 min) was 100%. The “%Remaining Before LSS 15 min” value (pure unsaturated drug, 15 min) amounted to 71.56%. For the same substance, the “%Remaining Before LSS 30 min” value (pure unsaturated drug, 30 min) is reported as 59.39%. The “%Remaining Before LSS 60 min” value (pure unsaturated drug, 60 min) is 45.29%.

These data come from PMC11066876, “Late-Stage Saturation of Drug Molecules” (Journal of the American Chemical Society, 2024).
